Tests used:
pig left atrium [1] = assay: Effect of Kv1.5 blockers on atrial contractility in anesthetized pigs, sinus rhythm; type: in vivo, German Landrace pigs
Procedure: (§1) A) Test of the Effect of Kv1.5 Blockers on Atrial Contractility in Anesthetized Pigs
(§2) Material and methods: German Landrace pigs were premedicated by an intramuscular injection of 2.5-3.5 mg/kg each of xylazine, tiletamine and zolazepam in a mixing syringe. The anesthesia was induced with pentobarbital (approx. 30 mg/kg i.v.) and maintained by continuous infusion of pentobarbital (12-17 mg/kg/h).
(§3) After induction of anesthesia and after a tracheotomy, the animals were intubated and ventilated with a mixture of ambient air with 40% oxygen.
The ventilation rate and volume were governed by regularly measured blood gas and pH levels. The body temperature was continuously recorded and controlled by a heated underlay and/or red light lamp and/or warming of the breathed air to keep it constant (about 37-38° C.).
The following blood vessels of the pigs were exposed and cannulated:
External jugular vein (anesthesia infusion), carotid artery (introduction of a tip manometer catheter in the left ventricle to record the pressure there), lateral saphenous vein (dosage of test substance), epigastrica cranialis superficialis vein (fluid infusion), femoral artery (peripheral blood pressure recording) and femoral vein (introduction of MAP catheter right atrium).
The parameters responsible for the contractility are determined using two ultrasonic sensors on the left atrium (P/N JP 5-2, Triton Technology®) [references 1 and 2]. These two piezoelectric sensors are implanted in the cranio-caudal direction through punctuate incisions at the extreme edge of the atrium. The incisions were each closed with a U stitch (2-0 Vicryl®). […]
The left atrial systolic shortening (LASS) was determined from the atrial diameter at the start of the active atrial pressure curve and the minimum diameter. […] The maximum steepness of the contraction curve was determined by importing the raw data points to Microsoft Excel for calculation of the maximum steepness of the curve. In order to exclude breathing-related variations, at least 10 cardiac cycles were analyzed. […]

Sequences of proteins named here, by UniProt entry; tags and fusion partners are left off.
UniProt P22460, whole entry: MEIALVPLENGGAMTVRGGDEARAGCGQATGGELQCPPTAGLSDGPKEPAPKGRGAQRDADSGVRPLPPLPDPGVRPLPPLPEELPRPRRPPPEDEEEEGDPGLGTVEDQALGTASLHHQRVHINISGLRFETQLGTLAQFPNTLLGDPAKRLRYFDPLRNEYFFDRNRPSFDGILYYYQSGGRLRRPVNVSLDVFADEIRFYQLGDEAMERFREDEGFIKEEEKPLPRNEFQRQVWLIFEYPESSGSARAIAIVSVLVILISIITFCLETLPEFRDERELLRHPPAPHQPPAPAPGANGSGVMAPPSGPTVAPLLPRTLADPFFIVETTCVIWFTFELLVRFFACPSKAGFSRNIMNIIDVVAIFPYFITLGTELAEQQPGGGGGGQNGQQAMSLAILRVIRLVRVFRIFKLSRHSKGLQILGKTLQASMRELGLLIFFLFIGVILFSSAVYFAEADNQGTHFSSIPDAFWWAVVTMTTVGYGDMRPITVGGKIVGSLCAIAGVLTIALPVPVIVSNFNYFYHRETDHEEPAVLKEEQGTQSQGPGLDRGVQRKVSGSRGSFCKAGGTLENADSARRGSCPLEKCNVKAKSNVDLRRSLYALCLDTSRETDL

pig left atrium [2] = assay: Effect on atrial contractility in anesthetized pigs after one hour of induced atrial fibrillation; type: in vivo, German Landrace pigs; settings: 1 mg/kg i.v., after 1 hour atrial fibrillation
Procedure: as §1, §2, §3
In a further series of experiments, the test substance was administered only after one hour of atrial fibrillation induced by persistent high-frequency stimulation (1200 beats/min) of the right atrium. In this case, the parameters of atrial contractility were recorded before/after the period of fibrillation and after administration of the test substance and compared with those after the vehicle control.
The ventilation rate and volume were governed by regularly measured blood gas and pH levels. The body temperature was continuously recorded and controlled by a heated underlay and/or red light lamp and/or warming of the breathed air to keep it constant (about 37-38° C.). […]
The parameters responsible for the contractility are determined using two ultrasonic sensors on the left atrium (P/N JP 5-2, Triton Technology®) [references 1 and 2]. […]

Human Kv1.5 channels = target: T1, Human Kv1.5 channels (Homo sapiens, UniProt P22460); assay: Determination of the activity on the Kv1.5 channel (two-microelectrode voltage clamp, Xenopus oocytes); type: cell-based; settings: human Kv1.5 expressed in Xenopus oocytes, room temperature
T1 construct: expressed in transfected cells; host or cells: Xenopus laevis oocytes injected with Kv1.5-encoding RNA synthesized in vitro
Procedure: Determination of the Activity on the Kv1.5 Channel Human Kv1.5 channels were expressed in xenopus oocytes. For this purpose, firstly oocytes were isolated from Xenopus laevis and defolliculated. Kv1.5-encoding RNA synthesized in vitro was then injected into these oocytes. […] The Kv1.5 channels were in this case usually activated with voltage jumps lasting 500 ms to 0 mV and 40 mV. […] These experiments were carried out at room temperature. […] The substances of the invention were tested by adding them in various concentrations to the bath solution.

Row | Structure (SMILES) | LASS index, absolute value, after administration (pig left atrium [1]; 1 mg/kg i.v., sinus rhythm) | LASS index, increase in % (pig left atrium [1]; 1 mg/kg i.v., sinus rhythm, after vs before administration) | atrial function (LASS index and LACC steepness), in words (pig left atrium [1]; normal sinus rhythm) | LASS index, absolute values (pig left atrium [2]) | LASS index, in % of the initial value (pig left atrium [2]; initial value = before AF) [%] | IC50 (Human Kv1.5 channels) [µM]
1 | COc1ccc(CC(=O)NCc2ccccc2-c2ccccc2C(=O)NCCc2cccnc2)cc1 [Example 1, N-(2-pyridin-3-ylethyl)-2′-{[2-(4-methoxyphenyl)acetylamino]-methyl}biphenyl-2-carboxamide] | 0.206 ± 0.017 | +29.5% | statistically significant improvement | 0.203 | 116 | 
2 | CCCCS(=O)(=O)Nc1ccccc1C(=O)N[C@H](CC)c1ccc(OC)nc1 (single isomer, unassigned) [Example 5] |  |  |  |  |  | 10
